Only a part of the results on these compounds is given; other tests are left out.
Key:
[1] = target: Nav1.8 (Homo sapiens, UniProt Q9Y5Y9); assay: Inhibition of Nav1.8 channel current in HEK cells stably expressing Nav1.8; format: cell-based; settings: read-out: IC50 for the inhibition of Nav1.8; HEK cells stably expressing Nav1.8, channel current
[2] = system: corneal reflex in rabbits; assay: Anesthetic effect on the corneal surface of New Zealand rabbits (corneal reflex inhibition, CRI); format: in vivo, New Zealand white rabbits; settings: 3% (m/V); for CRI (%): 100 μL on left eyeball, mean ± SD
Description: New Zealand white rabbits were weighed. […] A single administration of 3 mg/animal (100 μL) was performed on the surface of the eyeball, and the drug concentration was 3% (m/V) in each case (wherein a Tris solution was added to aspirin to facilitate dissolution). Each group included 12 rabbits. […] An equal volume of normal saline was dropped onto the right eyeball as the self-negative control. […] After 30 minutes of administration, it was tested every 15 minutes. After the corneal reflex returned to the pre-dose level, the test was stopped. By comparing the corneal reflex on the administration side and the self-negative control side, the effect of the compound on the corneal reflex after administration was judged. Corneal reflex inhibition (CRI) was used to evaluate the effect of drugs on corneal reflex. CRI was calculated as follows: […]

Sequences of proteins named here, by UniProt entry; tags and fusion partners are left off.
UniProt Q9Y5Y9, whole entry: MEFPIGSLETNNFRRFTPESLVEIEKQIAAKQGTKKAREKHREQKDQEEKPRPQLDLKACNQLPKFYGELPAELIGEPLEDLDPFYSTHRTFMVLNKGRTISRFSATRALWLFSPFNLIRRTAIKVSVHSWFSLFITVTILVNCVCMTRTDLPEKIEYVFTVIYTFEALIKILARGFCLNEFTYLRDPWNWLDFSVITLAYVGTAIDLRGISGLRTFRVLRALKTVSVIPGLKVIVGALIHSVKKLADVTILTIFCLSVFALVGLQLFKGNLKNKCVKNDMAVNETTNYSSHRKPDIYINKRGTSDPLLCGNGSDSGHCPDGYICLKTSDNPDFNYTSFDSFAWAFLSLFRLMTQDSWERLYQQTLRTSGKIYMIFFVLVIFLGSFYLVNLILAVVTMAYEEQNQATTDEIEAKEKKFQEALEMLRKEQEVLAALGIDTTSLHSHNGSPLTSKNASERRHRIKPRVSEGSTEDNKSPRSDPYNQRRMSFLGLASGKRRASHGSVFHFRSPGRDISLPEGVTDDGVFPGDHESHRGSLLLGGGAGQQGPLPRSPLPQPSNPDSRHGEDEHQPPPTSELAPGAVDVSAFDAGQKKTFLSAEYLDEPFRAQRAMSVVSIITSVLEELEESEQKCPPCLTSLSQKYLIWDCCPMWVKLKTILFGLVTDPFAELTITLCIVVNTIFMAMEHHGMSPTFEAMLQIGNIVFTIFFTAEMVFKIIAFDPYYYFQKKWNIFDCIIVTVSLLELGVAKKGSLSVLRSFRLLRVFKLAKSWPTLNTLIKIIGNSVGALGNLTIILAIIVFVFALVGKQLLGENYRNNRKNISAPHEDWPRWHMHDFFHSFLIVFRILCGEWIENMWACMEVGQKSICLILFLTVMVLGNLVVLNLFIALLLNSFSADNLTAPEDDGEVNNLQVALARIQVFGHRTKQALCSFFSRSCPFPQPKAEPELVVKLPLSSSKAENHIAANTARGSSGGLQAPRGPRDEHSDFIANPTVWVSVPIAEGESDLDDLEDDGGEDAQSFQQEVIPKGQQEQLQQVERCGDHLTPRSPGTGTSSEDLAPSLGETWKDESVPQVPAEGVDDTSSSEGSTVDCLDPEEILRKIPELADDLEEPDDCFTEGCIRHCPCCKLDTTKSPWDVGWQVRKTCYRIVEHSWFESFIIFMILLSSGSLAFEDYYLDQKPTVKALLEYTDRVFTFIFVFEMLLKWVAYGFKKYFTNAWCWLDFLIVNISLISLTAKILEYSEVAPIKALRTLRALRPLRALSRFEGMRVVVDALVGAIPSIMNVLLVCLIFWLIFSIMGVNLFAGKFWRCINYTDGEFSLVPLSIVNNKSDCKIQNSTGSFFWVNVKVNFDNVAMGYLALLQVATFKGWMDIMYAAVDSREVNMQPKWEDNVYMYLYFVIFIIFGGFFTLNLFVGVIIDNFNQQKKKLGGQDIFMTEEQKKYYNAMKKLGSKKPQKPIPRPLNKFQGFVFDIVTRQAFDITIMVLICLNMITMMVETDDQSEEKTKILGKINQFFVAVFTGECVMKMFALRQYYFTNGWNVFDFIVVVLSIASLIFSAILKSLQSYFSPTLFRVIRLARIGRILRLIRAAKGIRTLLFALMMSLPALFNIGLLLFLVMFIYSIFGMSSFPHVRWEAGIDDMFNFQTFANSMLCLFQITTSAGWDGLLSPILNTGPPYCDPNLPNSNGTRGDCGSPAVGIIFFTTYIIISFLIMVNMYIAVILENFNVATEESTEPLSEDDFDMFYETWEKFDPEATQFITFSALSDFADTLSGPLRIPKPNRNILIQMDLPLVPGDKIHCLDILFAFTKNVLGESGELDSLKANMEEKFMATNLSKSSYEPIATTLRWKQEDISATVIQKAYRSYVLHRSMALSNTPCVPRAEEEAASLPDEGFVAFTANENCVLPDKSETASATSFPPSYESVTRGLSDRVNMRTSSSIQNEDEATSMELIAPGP
UniProt Q15858, whole entry: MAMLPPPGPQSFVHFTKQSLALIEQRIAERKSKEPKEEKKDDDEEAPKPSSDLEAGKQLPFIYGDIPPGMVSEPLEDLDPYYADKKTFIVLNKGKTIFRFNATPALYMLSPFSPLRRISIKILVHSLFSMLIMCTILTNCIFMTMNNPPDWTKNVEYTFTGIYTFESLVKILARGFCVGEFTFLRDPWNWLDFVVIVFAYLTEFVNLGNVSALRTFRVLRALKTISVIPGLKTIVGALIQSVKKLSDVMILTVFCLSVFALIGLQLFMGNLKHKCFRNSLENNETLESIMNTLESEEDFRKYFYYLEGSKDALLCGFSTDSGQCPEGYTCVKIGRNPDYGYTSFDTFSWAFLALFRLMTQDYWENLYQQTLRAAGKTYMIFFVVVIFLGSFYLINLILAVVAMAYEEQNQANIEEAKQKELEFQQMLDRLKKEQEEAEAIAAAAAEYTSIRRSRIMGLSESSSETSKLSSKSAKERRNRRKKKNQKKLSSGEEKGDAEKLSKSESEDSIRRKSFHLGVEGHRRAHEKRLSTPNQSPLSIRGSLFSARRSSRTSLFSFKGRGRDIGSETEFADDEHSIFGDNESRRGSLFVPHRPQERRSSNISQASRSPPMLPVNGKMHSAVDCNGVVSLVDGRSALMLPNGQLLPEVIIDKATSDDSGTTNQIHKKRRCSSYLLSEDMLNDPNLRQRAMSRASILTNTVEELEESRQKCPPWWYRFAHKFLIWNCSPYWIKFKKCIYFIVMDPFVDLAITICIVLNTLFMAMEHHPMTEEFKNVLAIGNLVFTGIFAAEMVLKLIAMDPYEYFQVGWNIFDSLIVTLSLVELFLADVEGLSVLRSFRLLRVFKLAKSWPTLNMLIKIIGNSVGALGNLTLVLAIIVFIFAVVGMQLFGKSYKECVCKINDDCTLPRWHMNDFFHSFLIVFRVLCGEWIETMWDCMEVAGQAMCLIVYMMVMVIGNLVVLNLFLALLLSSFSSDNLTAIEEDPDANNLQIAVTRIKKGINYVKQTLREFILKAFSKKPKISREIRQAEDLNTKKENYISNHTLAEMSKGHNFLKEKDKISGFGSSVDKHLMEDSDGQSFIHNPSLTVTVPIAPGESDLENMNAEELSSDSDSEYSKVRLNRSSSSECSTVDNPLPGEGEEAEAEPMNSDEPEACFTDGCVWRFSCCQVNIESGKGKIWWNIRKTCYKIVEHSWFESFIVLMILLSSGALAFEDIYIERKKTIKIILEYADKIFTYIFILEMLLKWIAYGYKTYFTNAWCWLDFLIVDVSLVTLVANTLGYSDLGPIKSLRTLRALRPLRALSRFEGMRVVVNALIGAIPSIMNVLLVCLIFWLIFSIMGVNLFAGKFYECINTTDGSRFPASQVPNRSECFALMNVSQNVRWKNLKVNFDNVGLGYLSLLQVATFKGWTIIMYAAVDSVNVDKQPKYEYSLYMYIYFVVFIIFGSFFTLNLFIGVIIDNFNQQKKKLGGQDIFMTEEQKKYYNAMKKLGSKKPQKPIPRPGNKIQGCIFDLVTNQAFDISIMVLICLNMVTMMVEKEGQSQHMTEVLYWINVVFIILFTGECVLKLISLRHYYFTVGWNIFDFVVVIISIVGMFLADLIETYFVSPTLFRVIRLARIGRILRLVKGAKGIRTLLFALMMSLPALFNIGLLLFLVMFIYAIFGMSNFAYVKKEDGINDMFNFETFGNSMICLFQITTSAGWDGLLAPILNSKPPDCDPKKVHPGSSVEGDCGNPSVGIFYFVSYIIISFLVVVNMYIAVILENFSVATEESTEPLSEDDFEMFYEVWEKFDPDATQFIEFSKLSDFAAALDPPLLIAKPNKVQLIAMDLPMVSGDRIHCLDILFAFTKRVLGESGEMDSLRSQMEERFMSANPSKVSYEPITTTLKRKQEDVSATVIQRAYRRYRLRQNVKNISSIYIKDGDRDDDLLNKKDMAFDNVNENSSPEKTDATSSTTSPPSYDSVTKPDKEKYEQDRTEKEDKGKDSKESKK

[3] = target: Nav1.7 (Homo sapiens, UniProt Q15858); assay: Inhibition of Nav1.7 channel current in CHO cells stably expressing Nav1.7; format: cell-based; settings: read-out: IC50 for the inhibition of Nav1.7; CHO cells stably expressing Nav1.7, channel current
[4] = system: rat dorsal root ganglion (DRG) neurons; assay: Patch clamp inhibition of action potential of acutely isolated rat DRG neurons; format: cell-based; settings: read-out: IC50 for inhibition of action potential of DRG neuron

With “salicylic acid-(2-diethylaminoethyl ester) hydrochloride” the IC50 [1] was 73.1 µM, the “CRI (%)” value ([2]; 0 min) was 0.0 ± 0.0% and the “CRI (%)” value ([2]; 10 min after administration) was 96.7 ± 6.5%. The “CRI (%)” value ([2]; 15 min after administration) was 95.9 ± 9.8%, the “CRI (%)” value ([2]; 20 min after administration) was 87.5 ± 11.9% and the “CRI (%)” value ([2]; 25 min after administration) was 79.4 ± 12.2%. For the same substance, the “CRI (%)” value ([2]; 30 min after administration) was 60.2 ± 12.4%, the “CRI (%)” value ([2]; 45 min after administration) was 13.5 ± 9.9% and the “CRI (%)” value ([2]; 60 min after administration) was 0.0 ± 0.0%. For the same substance, the “local anesthetic effect (in words)” value ([2]; ophthalmic administration, rabbits) was “had a local anesthesia effect for ophthalmic administration, with quick onset”, the IC50 [3] was 24.7 µM and the IC50 [4] was 35 µM.
